target: EGFR T790M L858R (Homo sapiens, UniProt P00533, L858R/T790M); assay: biochemical; details: EGFR(T790M/L858R) Ki (μM), 5 μM ATP, 30 min, room temperature; apparent Ki (Morrison) converted by Cheng-Prusoff, Km of ATP 1.3 μM

The chains behind the UniProt entries cited, without tags or fusion partners. Residues count along the entry.
UniProt P00533, 25-1210 T790M/L858R limits assumed: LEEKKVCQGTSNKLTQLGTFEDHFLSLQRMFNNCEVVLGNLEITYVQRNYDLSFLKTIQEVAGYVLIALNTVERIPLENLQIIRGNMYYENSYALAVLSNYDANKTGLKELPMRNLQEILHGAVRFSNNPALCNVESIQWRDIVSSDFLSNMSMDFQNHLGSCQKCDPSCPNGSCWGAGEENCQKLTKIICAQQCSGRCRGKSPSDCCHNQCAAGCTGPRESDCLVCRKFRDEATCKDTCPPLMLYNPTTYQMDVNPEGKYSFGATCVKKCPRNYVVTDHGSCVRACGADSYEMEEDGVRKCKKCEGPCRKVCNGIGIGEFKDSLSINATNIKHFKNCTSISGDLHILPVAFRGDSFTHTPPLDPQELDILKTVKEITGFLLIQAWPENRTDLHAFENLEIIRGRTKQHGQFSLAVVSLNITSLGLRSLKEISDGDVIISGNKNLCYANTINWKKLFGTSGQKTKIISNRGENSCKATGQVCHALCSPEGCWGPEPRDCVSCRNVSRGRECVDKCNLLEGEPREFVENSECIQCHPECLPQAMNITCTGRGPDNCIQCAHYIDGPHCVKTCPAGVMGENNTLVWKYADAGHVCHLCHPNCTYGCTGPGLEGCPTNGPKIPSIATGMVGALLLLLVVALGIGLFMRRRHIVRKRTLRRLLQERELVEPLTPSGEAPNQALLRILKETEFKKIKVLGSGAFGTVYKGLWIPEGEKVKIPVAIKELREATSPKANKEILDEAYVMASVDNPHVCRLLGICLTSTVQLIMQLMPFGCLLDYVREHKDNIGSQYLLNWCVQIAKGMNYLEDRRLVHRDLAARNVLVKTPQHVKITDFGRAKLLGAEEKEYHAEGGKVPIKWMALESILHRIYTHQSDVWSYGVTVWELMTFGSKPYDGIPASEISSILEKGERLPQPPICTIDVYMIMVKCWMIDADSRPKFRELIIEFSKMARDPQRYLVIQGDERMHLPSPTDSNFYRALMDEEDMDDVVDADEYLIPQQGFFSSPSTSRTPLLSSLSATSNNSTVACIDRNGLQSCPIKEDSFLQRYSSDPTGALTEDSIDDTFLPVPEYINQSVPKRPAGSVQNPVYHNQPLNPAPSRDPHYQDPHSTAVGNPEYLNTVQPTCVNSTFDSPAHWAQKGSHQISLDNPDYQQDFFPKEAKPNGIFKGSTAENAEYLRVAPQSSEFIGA

| Compound | Ki [µM] |
| --- | --- |
| CC(C)n1cnc2cnc(Nc3ccnc(Nc4ccn(Cc5ccccc5)n4)n3)cc21 [Example 49, N^2-(1-Benzyl-1H-pyrazol-3-yl)-N4-(1-isopropyl-1H-imidazo[4,5-c]pyridin-6-yl)pyrimidine-2,4-diamine] | 0.474 |
| COc1ccc(-c2nccc(Nc3cc4c(cn3)ncn4C(C)C)n2)cc1 [Example 53, 1-Isopropyl-N-(2-(4-methoxyphenyl)pyrimidin-4-yl)-1H-imidazo[4,5-c]pyridin-6-amine] | 0.031 |
| COc1ccc(-c2nccc(Nc3cc4c(cn3)ncn4C(C)C)n2)cn1 [Example 54, 1-Isopropyl-N-(2-(6-methoxypyridin-3-yl)pyrimidin-4-yl)-1H-imidazo[4,5-c]pyridin-6-amine] | 0.0418 |
| CCOc1ncc(-c2nccc(Nc3cc4c(cn3)ncn4C(C)C)n2)cn1 [Example 55, N-(2′-Ethoxy-[2,5′-bipyrimidin]-4-yl)-1-isopropyl-1H-imidazo[4,5-c]pyridin-6-amine] | 0.468 |
| CC(C)OC1CCN(c2nccc(Nc3cc4c(cn3)ncn4C(C)C)n2)CC1 [Example 56, N-(2-(4-Isopropoxypiperidin-1-yl)pyrimidin-4-yl)-1-isopropyl-1H-imidazo[4,5-c]pyridin-6-amine] | 0.247 |
| COC1CCN(c2nccc(Nc3cc4c(cn3)c(C#N)cn4C(C)C)n2)CC1 [Example 58, 1-Isopropyl-6-((2-(4-methoxypiperidin-1-yl)pyrimidin-4-yl)amino)-1H-pyrrolo[3,2-c]pyridine-3-carbonitrile] | 0.0097 |
| CC(C)n1cc(C(N)=O)c2cnc(Nc3ccnc(N4CCc5[nH]ncc5C4)n3)cc21 [Example 60, 6-((2-(6,7-Dihydro-1H-pyrazolo[4,3-c]pyridin-5(4H)-yl)pyrimidin-4-yl)amino)-1-isopropyl-1H-pyrrolo[3,2-c]pyridine-3-carboxamide] | 0.0057 |
| CNC(=O)c1cn(-c2nccc(Nc3cc4c(cn3)nc(C)n4C(C)C)n2)cn1 [Example 61, 1-(4-((1-Isopropyl-2-methyl-1H-imidazo[4,5-c]pyridin-6-yl)amino)pyrimidin-2-yl)-N-methyl-1H-imidazole-4-carboxamide] | 0.787 |
| CC(C)n1cnc2cnc(Nc3ccnc(-c4ccc(O)nc4)n3)cc21 [Example 62, 5-(4-((1-Isopropyl-1H-imidazo[4,5-c]pyridin-6-yl)amino)pyrimidin-2-yl)pyridin-2-ol] | > 0.229 |
| COC1CCN(c2nccc(Nc3cc4c(cn3)c(C(=O)NCCn3ccnc3)cn4C(C)C)n2)CC1 [Example 63, N-(2-(1H-Imidazol-1-yl)ethyl)-1-isopropyl-6-(2-(4-methoxypiperidin-1-yl)pyrimidin-4-ylamino)-1H-pyrrolo[3,2-c]pyridine-3-carboxamide] | 0.0088 |
| COC1CCN(c2nccc(Nc3cc4c(cn3)c(-c3cc[nH]n3)cn4C(C)C)n2)CC1 [Example 64] | 0.001 |
| COC1CCN(c2nccc(Nc3cc4c(cn3)ncn4C(C)C)n2)C1 (centres unmarked) [Example 65, 1-isopropyl-N-(2-(3-methoxypyrrolidin-1-yl)pyrimidin-4-yl)-1H-imidazo[4,5-c]pyridin-6-amine] | 0.579 |
| CC(C)n1cnc2cnc(Nc3ccnc(N4CCCC(C(N)=O)C4)n3)cc21 (centres unmarked) [Example 66, 1-(4-(1-isopropyl-1H-imidazo[4,5-c]pyridin-6-ylamino)pyrimidin-2-yl)piperidine-3-carboxamide] | 0.593 |
| CC(=O)NC1CN(c2nccc(Nc3cc4c(cn3)ncn4C(C)C)n2)C1 [Example 67, N-(1-(4-(1-isopropyl-1H-imidazo[4,5-c]pyridin-6-ylamino)pyrimidin-2-yl)azetidin-3-yl)acetamide] | 1.49 |
| CC(=O)N1CC2CN(c3nccc(Nc4cc5c(cn4)ncn5C(C)C)n3)CC2C1 (centres unmarked) [Example 68, 1-(5-(4-(1-isopropyl-1H-imidazo[4,5-c]pyridin-6-ylamino)pyrimidin-2-yl)-hexahydropyrrolo[3,4-c]pyrrol-2(1H)-yl)ethanone] | 1.71 |
| CC(C)n1cnc2cnc(Nc3ccnc(N4CC5CN(S(C)(=O)=O)CC5C4)n3)cc21 (centres unmarked) [Example 69, 1-isopropyl-N-(2-(5-(methylsulfonyl)-hexahydropyrrolo[3,4-c]pyrrol-2(1H)-yl)pyrimidin-4-yl)-1H-imidazo[4,5-c]pyridin-6-amine] | 0.384 |
| CC(C)n1cnc2cnc(Nc3ccnc(N4CCN(C(N)=O)CC4)n3)cc21 [Example 70, 4-(4-(1-isopropyl-1H-imidazo[4,5-c]pyridin-6-ylamino)pyrimidin-2-yl)piperazine-1-carboxamide] | 0.216 |
| CC(C)n1cnc2cnc(Nc3ccnc(N4CCC5(CCN(S(C)(=O)=O)C5)C4)n3)cc21 (centres unmarked) [Example 71, 1-isopropyl-N-(2-(7-(methylsulfonyl)-2,7-diazaspiro[4.4]nonan-2-yl)pyrimidin-4-yl)-1H-imidazo[4,5-c]pyridin-6-amine] | 0.386 |
| COC1CCCN(c2nccc(Nc3cc4c(cn3)ncn4C(C)C)n2)C1 (centres unmarked) [Example 72, 1-isopropyl-N-(2-(3-methoxypiperidin-1-yl)pyrimidin-4-yl)-1H-imidazo[4,5-c]pyridin-6-amine] | 0.173 |

| Compound | Ki [µM] |
| --- | --- |
| CC(C)n1cnc2cnc(Nc3ccnc(N4CCC(NC(N)=O)CC4)n3)cc21 [Example 73, 1-(1-(4-(1-isopropyl-1H-imidazo[4,5-c]pyridin-6-ylamino)pyrimidin-2-yl)piperidin-4-yl)urea] | 0.11 |
| CC(C)n1cnc2cnc(Nc3ccnc(N4CCC(C)(C(N)=O)CC4)n3)cc21 [Example 74, 1-(4-(1-isopropyl-1H-imidazo[4,5-c]pyridin-6-ylamino)pyrimidin-2-yl)-4-methylpiperidine-4-carboxamidc] | 0.101 |
| CC(C)n1cnc2cnc(Nc3ccnc(N4CC(NS(C)(=O)=O)C4)n3)cc21 [Example 75, N-(1-(4-(1-isopropyl-1H-imidazo[4,5-c]pyridin-6-ylamino)pyrimidin-2-yl)azetidin-3-yl)methanesulfonamide] | 0.574 |
| CC(C)n1cnc2cnc(Nc3ccnc(N4CC(NC(N)=O)C4)n3)cc21 [Example 76, 1-(1-(4-(1-isopropyl-1H-imidazo[4,5-c]pyridin-6-ylamino)pyrimidin-2-yl)azetidin-3-yl)urea] | 1.16 |
| CC(C)n1cnc2cnc(Nc3ccnc(N4CCC(C(N)=O)C4)n3)cc21 (centres unmarked) [Example 77, 1-(4-(1-isopropyl-1H-imidazo[4,5-c]pyridin-6-ylamino)pyrimidin-2-yl)pyrrolidine-3-carboxamide] | 0.494 |
| CC(C)n1cnc2cnc(Nc3ccnc(N4CCC(NS(C)(=O)=O)CC4)n3)cc21 [Example 78, N-(1-(4-(1-isopropyl-1H-imidazo[4,5-c]pyridin-6-ylamino)pyrimidin-2-yl)piperidin-4-yl)methanesulfonamide] | 0.428 |
| CC(C)n1cnc2cnc(Nc3ccnc(N4CC(N)C4)n3)cc21 [Example 79, N-(2-(3-aminoazetidin-1-yl)pyrimidin-4-yl)-1-isopropyl-1H-imidazo[4,5-c]pyridin-6-amine] | 0.426 |
| CC(C)n1cnc2cnc(Nc3ccnc(N4CCC(C(=O)N(C)C)C4)n3)cc21 (centres unmarked) [Example 80, 1-(4-(1-isopropyl-1H-imidazo[4,5-c]pyridin-6-ylamino)pyrimidin-2-yl)-N,N-dimethylpyrrolidine-3-carboxamide] | 1.69 |
| CC(C)n1cnc2cnc(Nc3ccnc(N4CCN(C5COC5)CC4)n3)cc21 [Example 81, 1-isopropyl-N-(2-(4-(oxetan-3-yl)piperazin-1-yl)pyrimidin-4-yl)-1H-imidazo[4,5-c]pyridin-6-amine] | 1 |
| COCCCNc1nccc(Nc2cc3c(cn2)ncn3C(C)C)n1 [Example 82, N4-(1-isopropyl-1H-imidazo[4,5-c]pyridin-6-yl)-N2-(3-methoxypropyl)pyrimidine-2,4-diamine] | 0.756 |
| CC(C)n1cnc2cnc(Nc3ccnc(N4CCN(C)C(C(N)=O)C4)n3)cc21 (centres unmarked) [Example 83, 4-(4-(1-isopropyl-1H-imidazo[4,5-c]pyridin-6-ylamino)pyrimidin-2-yl)-1-methylpiperazine-2-carboxamide] | 0.243 |
| CC(C)n1cnc2cnc(Nc3ccnc(-c4cnc(N)nc4)n3)cc21 [Example 84, N4-(1-isopropyl-1H-imidazo[4,5-c]pyridin-6-yl)-2,5′-bipyrimidine-2′,4-diamine] | 0.111 |
| CC(C)n1cnc2cnc(Nc3ccnc(NCC(C)(C)C(N)=O)n3)cc21 [Example 85, 3-(4-(1-isopropyl-1H-imidazo[4,5-c]pyridin-6-ylamino)pyrimidin-2-ylamino)-2,2-dimethylpropanamide] | 0.0452 |
| CC(C)n1cnc2cnc(Nc3ccnc(OCCCO)n3)cc21 [Example 86, 3-(4-(1-isopropyl-1H-imidazo[4,5-c]pyridin-6-ylamino)pyrimidin-2-yloxy)propan-1-ol] | 1.67 |
| CC(C)n1cnc2cnc(Nc3ccnc(N4CCN5C(=O)OCC5C4)n3)cc21 (centres unmarked) [Example 87, 7-(4-(1-isopropyl-1H-imidazo[4,5-c]pyridin-6-ylamino)pyrimidin-2-yl)-tetrahydro-1H-oxazolo[3,4-a]pyrazin-3(5H)-one] | 1.42 |
| CC(C)n1cnc2cnc(Nc3ccnc(N4CCC(OCC(N)=O)CC4)n3)cc21 [Example 88, 2-(1-(4-(1-isopropyl-1H-imidazo[4,5-c]pyridin-6-ylamino)pyrimidin-2-yl)piperidin-4-yloxy)acetamide] | 0.241 |
| CC(C)n1cnc2cnc(Nc3ccnc(NCCC(N)=O)n3)cc21 [Example 89, 3-(4-(1-isopropyl-1H-imidazo[4,5-c]pyridin-6-ylamino)pyrimidin-2-ylamino)propanamide] | 0.439 |
| CC(C)n1cnc2cnc(Nc3ccnc(OCC(C)(C)CO)n3)cc21 [Example 90, 3-(4-(1-isopropyl-1H-imidazo[4,5-c]pyridin-6-ylamino)pyrimidin-2-yloxy)-2,2-dimethylpropan-1-ol] | 0.327 |
| Cc1nc2cnc(Nc3ccnc(-c4cccc(S(C)(=O)=O)c4)n3)cc2n1C(C)C [Example 92, 1-isopropyl-2-methyl-N-(2-(3-(methylsulfonyl)phenyl)pyrimidin-4-yl)-1H-imidazo[4,5-c]pyridin-6-amine] | 0.195 |
